Tests used:
5-HT1A receptor [1] = molecular target: T1, 5-HT1A receptor (Rattus norvegicus, UniProt P19327); experiment: Inhibition of 3H-8-OH-DPAT binding to serotonin 5-HT1A receptors in rat brain in vitro; design: 5-HT1A receptors in membranes from rat brain minus cerebellum; from tissue; host or cells: rat brain minus cerebellum, membranes; conditions: 3H-8-OH-DPAT 1 nM; membranes from rat brain minus cerebellum
Protocol: Inhibition of ^3 H-8-OH-DPAT Binding to Serotonin 5-HT1A Receptors in Rat Brain in vitro.
By this method the inhibition by drugs of the binding of the 5-HT1A agonist 3H-8-OH-DPAT (1 nM) to 5-HT1A receptors in membranes from rat brain minus cerebellum is determined in vitro . Accordingly, this is a test for affinity for the 5-HT1A receptor. The assay was performed as described by Hyttel et al., Drug Dev. Res. 1988, 15, 389-404.

Chains of the proteins cited; added tags and fusions are not shown.
UniProt P19327, whole entry: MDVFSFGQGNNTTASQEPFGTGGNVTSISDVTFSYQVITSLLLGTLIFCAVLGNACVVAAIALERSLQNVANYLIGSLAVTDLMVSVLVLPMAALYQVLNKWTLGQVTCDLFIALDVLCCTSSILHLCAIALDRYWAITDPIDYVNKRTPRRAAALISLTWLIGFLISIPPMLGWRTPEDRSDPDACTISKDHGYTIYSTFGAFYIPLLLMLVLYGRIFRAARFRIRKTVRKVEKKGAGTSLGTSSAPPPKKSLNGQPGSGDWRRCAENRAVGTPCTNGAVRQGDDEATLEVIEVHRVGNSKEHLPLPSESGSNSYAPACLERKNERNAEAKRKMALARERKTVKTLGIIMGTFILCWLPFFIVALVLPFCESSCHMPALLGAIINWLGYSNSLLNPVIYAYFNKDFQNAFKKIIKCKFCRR

5-HT1A receptor [2] = molecular target: T1, 5-HT1A receptor; experiment: Generalization to the discriminative stimulus properties induced by 8-OH-DPAT in rats (8-OH-DPAT cue, agonism); assay type: in vivo, rat (male Wistar); design: from tissue; host or cells: living male Wistar rat (in vivo, endogenous receptor); conditions: s.c.; usually 30 or 45 min before test
Protocol: Generalization to the Discriminative Stimulus Properties Induced by 8-OH-DPAT in Rats
This test is used to determine the 5-HT1A receptor agonistic effect of a test compound in vivo. A related method is described by Tricklebank, M. D., supra; Amt, J. Pharmacology & Toxicology, 1989, 64, 165.
The procedure is the same as for the antagonism test mentioned above, except that the test compound is substituted for 8-OH-DPAT and injected s.c. usually 30 min or 45 min, respectively, before beginning of the test.
The per cent drug responce obtained for each dose of test compound is used to calculate ED50 values by log-probit analysis.

5-HT1A receptor [3] = molecular target: T1, 5-HT1A receptor; experiment: Inhibition of 5-MeO-DMT-induced 5-HT syndrome in rats; assay type: in vivo, rat (male Wistar); design: Male Wistar rats (Mol:Wist) weighing 170-240 g are used; from tissue; host or cells: living male Wistar rat (Mol:Wist) (in vivo, endogenous receptor); conditions: s.c.; 5-MeO-DMT 5 mg/kg s.c.; inhibition of piano playing
Excerpt: Inhibition of 5-MeO-DMT-Induced 5-HT Syndrome in Rats
The so-called 5-HT syndrome is a characteristic pattern of behaviours which are induced by 5-HT agonists with effects on 5-HT, possibly 5-HT1A receptors (Smith, L. M. and Peroutka, S. J., Pharmacol. Biochem. & Behaviour, 1986, 24, 1513; Tricklebank, M. et al, Eur. J. Pharmacol. 1985, 117, 15). This test is a test for determining the antagonist effects of a test compound on 5-HT1A receptors in vivo by measuring the ability to inhibit 5-MeO-DMT induced 5-HT syndrome.
Male Wistar rats (Mol:Wist) weighing 170-240 g are used. Test substance is injected s.c. before 5-MeO-DMT 5 mg/kg, s.c. Four rats are used for each dose. A control group pretreated with saline is included each test day. 10, 15 and 20 min later the rats are observed for presence of serotonin (5-HT) syndrome. The following symptoms are recorded: 1) forepaw treading ("piano playing"), 2) head weaving and 3) hindleg abduction. Furthermore, flat motility is scored. Each part of the syndrome is scored as follows: marked effect (score 2), weak syndrome (score 1) and no effect (score 0). The scores of the three observation periods are added. […] The effect of the test substance is expressed as percent inhibition relative to the control group.
The percent inhibition of the piano playing syndrome is used as the response and ED50 value are calculated by log-probit analysis.

| Compound | IC50 (5-HT1A receptor [1]) [µM] | ED50 Agonism, 8-OH-DPAT cue (5-HT1A receptor [2]) [µmol/kg] | ED50, inhibition of 5-MeO-DMT induced 5-HT syndrome (5-HT1A receptor [3]) [µmol/kg] |
| --- | --- | --- | --- |
| 2-[4-[4-(2-pyrimidyl)-1-piperazinyl]butyl]-1,2-benzothiazol-3(2H)-one-1,1-dioxide [Gepirone, reference compound] | 0.31 | 0.81 | 32 |
| 4,4-dimethyl-1-[4-[4-(2-pyrimidyl)-1-piperazinyl]butyl]-2,6-piperidinedione [Ipsapirone, reference compound] | 0.017 | 1.6 | 26 |
| O=C1N(CCN2CCN(c3cccc4c3OCCO4)CC2)CCN1C1CCCCC1 [Compound 2d, 1-[2-[4-(1,4-Benzodioxan-5-yl)-1-piperazinyl]ethyl]-3-cyclohexyl-2-imidazolidinone] | 0.017 |  |  |
